Test results taken from US4835157A, “Thieno- and furopyrimidine-2,4-dione piperidine derivatives as serotonin antagonists and alpha adrenergic blocking agents” (Ortho Pharmaceutical Corporation, priority 1988, dated 1989).

Protein sequences, listed by entry. Tags and fused reporters are not part of them.
UniProt P14842, whole entry: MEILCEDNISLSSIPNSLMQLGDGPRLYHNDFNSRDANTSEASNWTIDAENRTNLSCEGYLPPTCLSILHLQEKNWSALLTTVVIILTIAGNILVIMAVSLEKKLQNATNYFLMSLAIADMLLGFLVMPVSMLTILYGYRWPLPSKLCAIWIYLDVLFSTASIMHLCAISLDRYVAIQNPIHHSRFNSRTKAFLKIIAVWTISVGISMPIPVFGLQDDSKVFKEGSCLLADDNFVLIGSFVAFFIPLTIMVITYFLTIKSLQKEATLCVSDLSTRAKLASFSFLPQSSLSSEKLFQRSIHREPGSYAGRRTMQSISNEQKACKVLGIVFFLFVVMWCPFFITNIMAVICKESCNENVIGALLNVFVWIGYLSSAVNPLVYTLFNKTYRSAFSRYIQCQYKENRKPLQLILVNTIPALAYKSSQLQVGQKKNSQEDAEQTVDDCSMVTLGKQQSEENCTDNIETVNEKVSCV

Target: 5HT2 (Rattus norvegicus, UniProt P14842)
Experiment: Brain Serotonin (5-HT2) Radioreceptor Assay (3H-ketanserin displacement, rat frontal cortex membranes)
Assay type: binding
Parameters: dissected from brains obtained from female rats; from tissue; host or cells: frontal cortex of female rats (about 150 g), membrane fragments
Conditions: 15 min at 37° C
Protocol: Brain Serotonin (5-HT2) Radioreceptor Assay
The test objects of this Example were rat frontal cortex membranes. Mebrane fragments were prepared from the frontal cortex dissected from brains obtained from female rats (≈150 g). […] Compound bound to the receptor site was separated from the remaining unbound compound by vacuum filtration. […] Specific binding was determined by the difference between total counts bound and counts bound in the presence of 10^-6 M methysergide.

## Cc1nc2sccn2c(=O)c1CCN1CCC(=C(c2ccc(F)cc2)c2ccc(F)cc2)CC1 [Ritanserin, reference compound]
  IC50: 2.1 nM
